Measurements published in patent US20250034138A1, “Compounds and Compositions as C-Kit Kinase Inhibitors” (Enanta Pharmaceuticals, Inc., priority 2023, published 2025).

Amino acid sequences for entries named in this document (tags omitted). Residues count along the entry.
UniProt P10721, 26-976 limits assumed: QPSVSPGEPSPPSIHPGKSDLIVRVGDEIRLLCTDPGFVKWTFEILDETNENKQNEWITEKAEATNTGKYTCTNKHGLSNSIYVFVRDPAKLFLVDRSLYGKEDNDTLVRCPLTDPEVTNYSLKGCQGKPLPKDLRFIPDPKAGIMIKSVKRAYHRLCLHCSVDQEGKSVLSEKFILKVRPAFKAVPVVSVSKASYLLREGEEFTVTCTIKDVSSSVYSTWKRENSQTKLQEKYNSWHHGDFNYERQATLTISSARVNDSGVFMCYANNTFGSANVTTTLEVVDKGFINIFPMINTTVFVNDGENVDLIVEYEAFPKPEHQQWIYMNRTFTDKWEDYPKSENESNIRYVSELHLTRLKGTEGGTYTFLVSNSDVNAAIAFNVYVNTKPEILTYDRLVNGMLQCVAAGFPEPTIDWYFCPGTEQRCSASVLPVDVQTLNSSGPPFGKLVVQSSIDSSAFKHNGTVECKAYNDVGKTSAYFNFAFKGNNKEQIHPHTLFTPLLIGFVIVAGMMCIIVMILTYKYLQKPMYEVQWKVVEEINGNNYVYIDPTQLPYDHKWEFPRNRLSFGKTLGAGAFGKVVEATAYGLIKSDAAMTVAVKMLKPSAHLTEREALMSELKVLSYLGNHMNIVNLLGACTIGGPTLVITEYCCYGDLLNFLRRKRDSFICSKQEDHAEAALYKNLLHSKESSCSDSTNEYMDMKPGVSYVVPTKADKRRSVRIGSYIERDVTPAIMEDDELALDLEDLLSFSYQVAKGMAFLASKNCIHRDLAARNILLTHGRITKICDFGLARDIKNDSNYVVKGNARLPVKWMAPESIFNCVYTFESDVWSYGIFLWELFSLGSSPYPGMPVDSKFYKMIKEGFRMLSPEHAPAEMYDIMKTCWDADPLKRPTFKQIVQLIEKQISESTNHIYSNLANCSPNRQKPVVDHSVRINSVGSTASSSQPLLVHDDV

How the values were obtained:
[1] = target: Recombinant human c-KIT kinase (Homo sapiens, UniProt P10721); experiment: c-KIT Kinase Chemiluminescence Assay (ADP-Glo); details: read-out: c-Kit IC50; recombinant human c-KIT 30-40 nM, ATP 50 μM, polyEY substrate, ADP-Glo luminescence
Text: Staurosporine (AM-2282) and Imatinib (STI571) were purchased from Selleck Chemicals LLC (Houston, TX). The c-KIT reference compound THB001 (EP-053504) was synthesized by Enanta Pharmaceuticals, Inc. (Watertown, MA). The c-KIT Kinase Enzyme System (V4498) and ADP-Glo™ Kinase Assay kit (V6930) were purchased from Promega (Madison, WI). DMSO (D2650) was purchased from Sigma-Aldrich (Burlington, MA). ECHO-650 acoustic liquid handling system (67492212) and 384-well LDV ECHO source plates (LP-0200) were purchased from Labcyte, Inc (San Jose, CA). Envision Multimode Plate Reader (2104/464466) and ProxiPlate-384 Plus White 384-shallow well microplates (6008280) were purchased from PerkinElmer (Waltham, MA).
1. c-KIT Kinase Chemiluminescence Assay:
IC50 determination. Test compounds were dispersed into a 384-well low volume while ProxiPlate microplate from a DMSO solution using an ECHO 650 acoustic dispenser to generate a 11-point, 3.162-fold dilution, concentration curve starting at 10 μM in duplicate. Kinase Reaction: The kinase assay was based on the recommended protocol by c-KIT Kinase Enzyme System from Promega. […] Kinase activity was measured as increase in luminescence at RT in an Envision plate reader equipped with 560 nm filters and operating in endpoint mode. […]

[2] = system: M-07e cells which endogenously express human c-KIT; experiment: M-07e Cellular Assay (SCF-mediated cell proliferation, CellTiter Glo); assay type: cell-based; details: read-out: M-07e EC50, SCF (EC90)-stimulated M-07e cell proliferation, 72 hours
Description: 2. M-07e Cellular Assay M-07e cells (Creative Bioarray, CSC-CO249) which endogenously express human c-KIT were used to evaluate the effect of compounds on stem cell factor (SCF)-mediated cell proliferation. M-07e cells were cultured in growth media (RPMI+10% FBS+1% penicillin/streptomycin+10 ng/mL GM-CSF) at 5E5-1.5E6 cells/mL, replenishing media every 3-4 days. 1.5E4 cells were seeded per well in 384 well tissue culture treated plates in 20 μL assay media (RPMI+10% FBS+1% penicillin/streptomycin) without growth factor stimulation and incubated at 37° C. in a CO2 humidity-controlled incubator. Twenty-four hours later, three-fold serially diluted test compounds in media containing SCF (at the previously determined EC90) were added to the plated M-07e cells and incubated for an additional 72 hours. Cell viability was determined by adding 25 μL CellTiter Glo (Promega) to the cells and the luminescence was measured using a Perkin Elmer Envision plate reader. The EC50 was determined using GraphPad Prism. […] EC50 ranges are reported as follows: […]

SMILES	IC50 [1] [µM]	EC50 [2] [nM]
Cc1ccc(-c2nc3n(n2)[C@H](c2ccccc2)C[C@@H]3F)cc1NC(=O)c1cnc2ccccn12	0.1 to 1	> 1000
Cc1ccc(-c2nc3n(n2)C[C@@H](C(F)(F)F)CC3)cc1NC(=O)c1cnc2ccccn12	0.1 to 1	< 100
